From patent US9394297B2, “Amides as pim inhibitors” (AMGEN INC., priority 2012, dated 2016)

The chains behind the UniProt entries cited, without tags or fusion partners. Where a name states a change or a piece, a line headed by the entry shows the natural chain unless it says otherwise.
UniProt P11309, whole entry: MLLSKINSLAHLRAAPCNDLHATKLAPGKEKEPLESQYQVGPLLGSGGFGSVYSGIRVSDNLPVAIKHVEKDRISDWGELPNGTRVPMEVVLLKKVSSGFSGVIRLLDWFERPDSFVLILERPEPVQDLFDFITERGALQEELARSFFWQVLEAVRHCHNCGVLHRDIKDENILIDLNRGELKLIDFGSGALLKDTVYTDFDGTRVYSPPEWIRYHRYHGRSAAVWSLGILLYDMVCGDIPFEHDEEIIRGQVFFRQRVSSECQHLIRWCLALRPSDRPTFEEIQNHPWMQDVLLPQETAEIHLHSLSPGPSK
UniProt Q9P1W9: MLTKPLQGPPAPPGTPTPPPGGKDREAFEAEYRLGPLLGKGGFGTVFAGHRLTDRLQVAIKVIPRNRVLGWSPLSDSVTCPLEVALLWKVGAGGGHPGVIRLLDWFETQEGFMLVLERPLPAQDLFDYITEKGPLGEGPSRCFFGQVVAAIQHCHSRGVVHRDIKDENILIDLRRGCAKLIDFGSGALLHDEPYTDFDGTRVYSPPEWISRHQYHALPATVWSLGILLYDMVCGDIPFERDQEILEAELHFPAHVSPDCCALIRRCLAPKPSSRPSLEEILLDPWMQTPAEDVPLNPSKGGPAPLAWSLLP

Columns and labels:
[1] = target: Pim-1 (Homo sapiens (Human), UniProt P11309); test: Pim enzyme assay (HTRF, 96-well), Pim-1; assay type: biochemical; details: full length recombinant Pim-1, biotinylated-BAD (S112) peptide, 10-point curve, 2 h RT, read-out: Pim-1 IC50 IP
[2] = target: Pim-2 (Homo sapiens (Human), UniProt Q9P1W9); test: Pim-Mn enzyme assay (HTRF, 384-well), Pim-2; assay type: biochemical; details: Pim-2 enzyme 0.5 pM, ATP 1.5 μM, BAD (S112) 0.5 μM, 22-point curve, read-out: Pim-2-Mn IC50 IP

IC50 [1] [nM] | IC50 [2] [nM] | SMILES
9.3 |  | CCCNc1nc2c(-c3cc4c([nH]3)CCNC4=O)cccc2nc1C [Example 191, 2-(2-methyl-3-(propylamino)-5-quinoxalinyl)-1,5,6,7-tetrahydro-4H-pyrrolo[3,2-c]pyridin-4-one]
 | 8.14 | Cc1nc2cccc(-c3cc4c([nH]3)CCCNC4=O)c2nc1NC(C)(C)C [Example 305, 2-(3-(tert-butylamino)-2-methylquinoxalin-5-yl)-5,6,7,8-tetrahydropyrrolo[3,2-c]azepin-4(1H)-one]
 | 0.109 | Cc1nc2ccc(F)c(-c3cc4c([nH]3)[C@@H](C)NC4=O)c2nc1NC(C)(C)C [Example 297, (6R)-2-(3-(tert-butylamino)-6-fluoro-2-methyl-5-quinoxalinyl)-6-methyl-5,6-dihydropyrrolo[3,4-b]pyrrol-4(1H)-one]
14.9 |  | CC1CNC(=O)c2cc(-c3cccc4ccc(Oc5ccccc5)nc34)[nH]c21 (racemic) [Example 28, rac-7-methyl-2-(2-phenoxyquinolin-8-yl)-6,7-dihydro-1H-pyrrolo[3,2-c]pyridin-4(5H)-one]
4.1 |  | O=C1NCCc2[nH]c(-c3cccc4ccc(C5(c6ccccc6)CC5)nc34)cc21 [Example 114, 2-(2-(1-phenylcyclopropyl)quinolin-8-yl)-6,7-dihydro-1H-pyrrolo[3,2-c]pyridin-4(5H)-one]
50.9 |  | Cc1nc2cccc(-c3cc4c([nH]3)CCNC4=O)c2nc1NC1CCC(=O)N(C)C1 (racemic) [Example 195, rac-2-(2-methyl-3-((1-methyl-6-oxopiperidin-3-yl)amino)quinoxalin-5-yl)-6,7-dihydro-1H-pyrrolo[3,2-c]pyridin-4(5H)-one 2,2,2-trifluoroacetate]
370 |  | CC1Cc2[nH]c(-c3cccc4ccc(Cl)nc34)cc2C(=O)N1 (racemic) [Example 31, rac-2-(2-chloroquinolin-8-yl)-6-methyl-6,7-dihydro-1H-pyrrolo[3,2-c]pyridin-4(5H)-one]
54.8 |  | CC(Oc1ccc2cccc(-c3cc4c([nH]3)CCNC4=O)c2n1)C(F)(F)F (racemic) [Example 79, rac-2-(2-((1,1,1-trifluoropropan-2-yl)oxy)quinolin-8-yl)-6,7-dihydro-1H-pyrrolo[3,2-c]pyridin-4(5H)-one]
4.9 |  | O=C1NCCc2[nH]c(-c3cccc4ccc(Sc5ccccc5)nc34)cc21 [Example 5, 2-(2-(phenylthio)quinolin-8-yl)-6,7-dihydro-1H-pyrrolo[3,2-c]pyridin-4(5H)-one]
153 |  | CC1CNC(=O)c2cc(-c3cccc4ccc(Cl)nc34)[nH]c21 (racemic) [Example 27, rac-2-(2-chloroquinolin-8-yl)-7-methyl-6,7-dihydro-1H-pyrrolo[3,2-c]pyridin-4(5H)-one]
 | 61.8 | Cc1nc2cccc(-c3cc4c([nH]3)CCNC4=O)c2nc1NC(C)(C)CNC(=O)OC(C)(C)C [Example 339, tert-butyl (2-methyl-2-((3-methyl-8-(4-oxo-4,5,6,7-tetrahydro-1H-pyrrolo[3,2-c]pyridin-2-yl)-2-quinoxalinyl)amino)propyl)carbamate]
2.4 |  | CC[C@@H]1CNC(=O)c2cc(-c3cccc4ccc(Nc5ccccc5)nc34)[nH]c21 [Example 25, (R)-7-ethyl-2-(2-(phenylamino)quinolin-8-yl)-6,7-dihydro-1H-pyrrolo[3,2-c]pyridin-4(5H)-one]
0.7 |  | CC[C@H]1CNC(=O)c2cc(-c3cccc4ccc(Nc5ccccc5)nc34)[nH]c21 [Example 239, (S)-7-ethyl-2-(2-(phenylamino)quinolin-8-yl)-6,7-dihydro-1H-pyrrolo[3,2-c]pyridin-4(5H)-one]
4.1 |  | O=C1NCCc2[nH]c(-c3cccc4ccc(Oc5cccc(O)c5)nc34)cc21 [Example 109, 2-(2-(3-hydroxyphenoxy)quinolin-8-yl)-6,7-dihydro-1H-pyrrolo[3,2-c]pyridin-4(5H)-one]
0.7 |  | CCC1CNC(=O)c2cc(-c3cccc4ccc(Nc5ccccc5)nc34)[nH]c21 (racemic) [Example 24, rac-7-ethyl-2-(2-(phenylamino)quinolin-8-yl)-6,7-dihydro-1H-pyrrolo[3,2-c]pyridin-4(5H)-one]
